Earlier results, collected in paper PMC12595476, “FibrilPaint to determine the length of Tau amyloids in fluids” (Proceedings of the National Academy of Sciences of the …, 2025).

System: Amyloid-β (Aβ) plaques
Settings: in words; cited from earlier work
Source text: The formation of amyloid fibrils is one of the earliest pathological hallmarks of neurodegenerative diseases ([3], [6], [12]–[15]). Recently, the antibodies Aducanumab and Lecanemab have been approved to target Amyloid-β (Aβ) plaques in the brain, aiming to slow down the progression of the disease and improve cognitive function ([16], [17]). In AD, Aβ aggregation outside the cell precedes Tau aggregation inside the cell ([4], [13], [18]).

In the case of “Aducanumab: antibody approved to target Amyloid-β (Aβ) plaques [reference compound]”, the clinical effect is given as “modest” and the risks is given as “significant risks involved”.
